Data taken from patent publication US20230103444A1 (The Regents of the University of Colorado, a Body Corporate, priority 2020, published 2023).
Several values for one entry are separate records, joined by “and”; a condition that tells them apart may be missing. Identical values can stand only once. Like-named read-outs stand apart in the source and are kept apart here.

How the values were obtained:
[1] = Pharmacokinetics in CD-1 mice; conditions: for half-life: female, CD-1, mouse, 50 mg/kg; for In vivo Half-Life: plasma half-life
[2] = Mouse liver microsome stability; conditions: for in vitro liver microsome half-life: second series, different liver microsome preparation
cat-CHD1L ATPase = molecular target: T1, cat-CHD1L ATPase (Homo sapiens, UniProt Q86WJ1); assay: CHD1L ATPase assay with recombinant catalytic domain (cat-CHD1L); assay type: biochemical; conditions: for CHD1L enzyme inhibition, in words: recombinant cat-CHD1L
T1 construct: inferred from Ni-NTA / imidazole purification; made in house; host or cells: E. coli Rosetta 2 (DE3) pLysS; constructs were a gift from Helena Berglund, Karolinska Institute
T1 sequence (Q86WJ1 16-611 limits assumed): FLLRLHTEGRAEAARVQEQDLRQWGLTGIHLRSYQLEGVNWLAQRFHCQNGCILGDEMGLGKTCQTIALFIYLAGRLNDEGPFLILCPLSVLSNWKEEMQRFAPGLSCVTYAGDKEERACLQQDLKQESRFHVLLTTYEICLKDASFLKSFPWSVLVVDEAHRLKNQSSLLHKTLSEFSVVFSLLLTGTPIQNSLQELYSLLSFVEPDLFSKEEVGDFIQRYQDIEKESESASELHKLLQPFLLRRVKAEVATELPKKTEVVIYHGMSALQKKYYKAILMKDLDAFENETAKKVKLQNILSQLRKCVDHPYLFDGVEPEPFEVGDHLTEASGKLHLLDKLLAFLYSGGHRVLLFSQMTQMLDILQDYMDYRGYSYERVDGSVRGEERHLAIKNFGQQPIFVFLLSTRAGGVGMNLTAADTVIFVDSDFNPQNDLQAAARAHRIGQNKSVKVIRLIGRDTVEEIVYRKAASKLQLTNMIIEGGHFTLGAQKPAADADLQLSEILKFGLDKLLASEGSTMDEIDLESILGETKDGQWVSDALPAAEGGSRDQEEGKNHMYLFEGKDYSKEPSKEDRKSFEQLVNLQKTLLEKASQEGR

[3] = Table 6, read-out: cat-CHD1L inhibition IC50

SMILES	half-life ([1]; in vivo) [h]	half-life ([1]; in vivo, ip) [h]	In vivo Half-Life [1] [h]	in vitro liver microsome half-life [2]	CHD1L enzyme inhibition, in words (cat-CHD1L ATPase)	IC50 (cat-CHD1L ATPase; [3]) [nM]	also measured
Cc1cc(Nc2ccc(NC(=O)Cc3cccs3)cc2)nc(N2CCCC2)n1 [Compound 6, N-(4-((6-methyl-2-(pyrrolidin-1-yl)pyrimidin-4-yl)amino)phenyl)-2-(thiophen-2-yl)acetamide]	3	3	3	1.12 h			T1/2λ ([1]; single i.p. 50 mg/kg): 2.97 h; in vitro liver microsome half-life ([2]; listed as 6.0): 1.12 h
Cc1cc(Nc2ccc(NC(=O)Cc3c[nH]c4ccccc34)cc2)nc(N2CCCC2)n1 [Compound 6.5, 2-(1H-indol-3-yl)-N-(4-((6-methyl-2-(pyrrolidin-1-yl)pyrimidin-4-yl)amino)phenyl)acetamide]					more potent CHD1L inhibitors		CHD1L enzyme inhibition, in words (cat-CHD1L ATPase; listed as 57): good enzyme inhibition
Cc1cc(Nc2ccc(NC(=O)Cc3cc(Br)cs3)cc2)nc(N2CCCC2)n1 [Compound 6.11, 2-(4-bromothiophen-2-yl)-N-(4-((6-methyl-2-(pyrrolidin-1-yl)pyrimidin-4-yl)amino)phenyl)-acetamide]	8	8	8	2.17 h and 2.172 h	more potent CHD1L inhibitors		IC50 (cat-CHD1L ATPase): 1300 nM; CHD1L enzyme inhibition, in words (cat-CHD1L ATPase; listed as 52): good enzyme inhibition; in vivo half-life relative to compound 6 ([1]; 6.11 vs 6): 2.7 fold; half-life ([1]; plasma, ip): > 6 h; t1/2λ ([1]; oral gavage (p.o.) 50 mg/kg): 8 h; microsomal half-life relative to compound 6.0 ([2]; 6.11 vs 6.0): 2 fold
Cc1cc(Nc2ccc(NC(=O)Cc3cccc4ccccc34)cc2)nc(N2CCCC2)n1 [Compound 6.16, N-(4-((6-methyl-2-(pyrrolidin-1-yl)pyrimidin-4-yl)amino)phenyl)-2-(naphthalen-1-yl)acetamide]					more potent CHD1L inhibitors	1300	CHD1L enzyme inhibition, in words (cat-CHD1L ATPase; listed as 54): good enzyme inhibition
Cc1cc(Nc2ccc(NC(=O)Cc3c[nH]c4cc(Cl)ccc34)cc2)nc(N2CCCC2)n1 [Compound 6.18, 2-(6-chloro-1H-indol-3-yl)-N-(4-((6-methyl-2-(pyrrolidin-1-yl)pyrimidin-4-yl)amino)phenyl)acetamide]					more potent CHD1L inhibitors	1000	CHD1L enzyme inhibition, in words (cat-CHD1L ATPase; listed as 28): good enzyme inhibition
Cc1cc(Nc2ccc(NC(=O)Cc3c(C)[nH]c4ccccc34)cc2)nc(N2CCCC2)n1 [Compound 6.21, 2-(2-methyl-1H-indol-3-yl)-N-(4-((6-methyl-2-(pyrrolidin-1-yl)pyrimidin-4-yl)amino)phenyl)acetamide]					more potent CHD1L inhibitors	1000	CHD1L enzyme inhibition, in words (cat-CHD1L ATPase; listed as 31): good enzyme inhibition
